This experiment addresses CB1R (Mus musculus, UniProt P47746). Nature of the experiment: Radioligand binding assay, competition displacement of [3H]CP-55,940, CB1R. On the technique in general: Loss of bound radioactivity is the signal in a displacement assay; it reports binding, not function.

Sequences of proteins named here, by UniProt entry; tags and fusion partners are left off.
UniProt P47746, whole entry: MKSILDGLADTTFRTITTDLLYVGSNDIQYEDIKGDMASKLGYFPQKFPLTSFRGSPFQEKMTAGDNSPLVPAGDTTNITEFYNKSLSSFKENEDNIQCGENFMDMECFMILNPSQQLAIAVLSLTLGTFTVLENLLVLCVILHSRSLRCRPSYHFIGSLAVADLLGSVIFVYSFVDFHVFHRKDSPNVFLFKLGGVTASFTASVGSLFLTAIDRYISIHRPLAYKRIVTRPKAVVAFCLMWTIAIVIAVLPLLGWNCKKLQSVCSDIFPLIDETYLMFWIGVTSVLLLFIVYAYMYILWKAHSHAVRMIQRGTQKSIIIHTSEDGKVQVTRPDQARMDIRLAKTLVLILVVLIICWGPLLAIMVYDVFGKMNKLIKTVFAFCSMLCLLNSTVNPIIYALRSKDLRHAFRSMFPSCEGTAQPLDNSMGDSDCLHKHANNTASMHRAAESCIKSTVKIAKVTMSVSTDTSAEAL

Four molecules from patent US20230172929A1, “NOVEL PERIPHERAL CANNABINOID-1 RECEPTOR ANTAGONISTS” (Yissum Research Development Company of the Hebrew …, priority 2019, published 2023) can be followed below.

The structures appear in SMILES notation. Where two headings read alike, the source gives them in different places.

In the case of `CC1=C(C(=O)Nc2ccccc2C(F)(F)F)[C@@H](c2ccc(OCc3ccccc3)cc2)NC(=S)N1`, where the note is “read-out: Ki (μM) R, separated isomer R”, the Ki was 0.29 µM.
The molecule `Cc1cccc(NS(=O)(=O)c2cc(C(=O)NCCc3c[nH]c4ccccc34)c(Cl)cc2Cl)c1` yielded an inhibitory constant (Ki) (CB1R competitive binding, mouse brain membranes, [3H]CP-55,940) of 1 µM.
Turning to `CC(=O)NC(CC(=O)NCC(c1ccccc1Cl)c1c[nH]c2ccccc12)c1ccc(C)cc1` (single isomer, unassigned), the Ki turned out to be 1.1 µM (read-out: Ki (μM) RR, separated isomer RR); 5.6 µM (read-out: Ki (μM) RS, separated isomer RS); 5.5 µM (read-out: Ki (μM) SR, separated isomer SR); 1.8 µM (read-out: Ki (μM) SS, separated isomer SS).
For `CC1=C(C(=O)Nc2ccccc2C(F)(F)F)C(c2ccc(OCc3ccccc3)cc2)NC(=S)N1` (single isomer, unassigned), the Ki (read-out: Ki (μM) S, separated isomer S) came to 0.977 µM.

By Ki is commonly meant the equilibrium dissociation constant of an inhibitor or competing ligand from its target.
